Compounds with a hit are over-represented: about 1.3% of the library has one in this group of screens.
ARNT TACC3 PPI – disruptors of ARNT/TACC3 protein interaction, primary screen, biochemical, AlphaScreen, single concentration. AlphaScreen His-ARNT PAS-B/GST-TACC3 binding, luminescence; TACC3 fragment carries E629A point mutation. Transforming acidic coiled-coil-containing protein 3 (Homo sapiens), Q9Y6A5. 390,000 tested, 0.66% active. AID 623870, 2012. inhibition, % at 9.99 µM;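 active means mean inhibition of replicates at least 50% and at least half of replicates each reaching 50%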;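 further: 0% = complete ARNT plus TACC3 wells and 100% = ARNT alone without TACC3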
UUG fidelity – yeast start codon fidelity modulation | S. cerevisiae UUG-firefly luciferase reporter, luminescence/redox ratio | activity score, % at 18.7 µM | hit rate 0.13% among 350,000 | AID 602363;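 active means replicate mean at a twofold rise or more, about +100% in these data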;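 further: firefly luciferase made from a UUG start codon reports start codon fidelity; reporter light over untreated wells divided by growth signal over untreated wells; some hits fall short of that in this replicate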
MLL AF4-AF9 inh – inhibitors of AF4 peptide binding to AF9, primary screen, biochemical, AlphaScreen, biotin-AF4 peptide, FLAG-AF9, single point | Protein AF-9 (Homo sapiens), P42568 | inhibition, % at 10 µM | 350,000 tested, 0.47% active | AID 651704, 2012;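 active means every replicate reaching a set inhibition limit, whatever the replicate mean, cut at about 25% in these data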;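 further: 0% = plate neutral control median and 100% = total signal loss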
E-sel inducer – E-selectin induction in HUVECs, primary screen, imaging, HUVEC, immunofluorescence imaging, single point; normalized: neutral wells 0, TNF-alpha wells 100; 260,000 tested, 0.37% active; activation, % at 7.58 µM;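 active means mean E-selectin-positive cell signal at least 10% of the positive control, reached in at least 60% of replicates, without over 20% cell loss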
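Material: HUVEC primary endothelial cells; Amount: 3,000 cells per well; Dosing: single concentration; Medium: EGM-2 growth medium on 0.1% gelatin-coated wells; Read-out basis: percent E-selectin-positive cells; Signal: immunofluorescence imaging; Control set: TNF-alpha, DMSO.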
ERAP1 HTS inh – human ERAP1 aminopeptidase inhibitors, primary screen, biochemical, single point, plate reader | recombinant ERAP1, Leu-AMC fluorescence, 60 min | inhibition, % at 10.7 µM | 340,000 tested, 0.15% active;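 active means mean replicate inhibition of at least 30%, or all replicates individually reaching that 30% level; inactive means mean below 30% and not every replicate reaching it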;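 further: 0% = neutral control wells and 100% = L-leucinethiol positive control wells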
S100A4 MyoIIA – inhibitors of S100A4-myosin IIA peptide binding, primary screen, biochemical, fluorescence polarization, TAMRA-MyoIIA peptide; Protein S100-A4 (Homo sapiens), P26447; inhibition, % at 10.7 µM; 360,000 tested, 0.14% active;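 active means mean inhibition of at least 70% across replicates, with every replicate also reaching that level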
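Assay system: human S100A4 monomer with TAMRA-labelled myosin IIA peptide / Buffer or medium: Calcium-containing HEPES buffer, pH 7.2 / Reagent: TAMRA-labelled myosin IIA heavy-chain peptide probe, 5 nM / Compound: one dose per compound / Timing: polarization read 5 min after assay mix addition, stable 5–60 min / Benchmarks: neutral control DMSO, positive control TFP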
* marks the source's active call; other numbers are inactive results; / = no result given.

By UniProt entry, the sequences of proteins in these tests, tags left out.
Protein AF-9 (Homo sapiens), P42568, UniProt P42568, whole entry, looked up: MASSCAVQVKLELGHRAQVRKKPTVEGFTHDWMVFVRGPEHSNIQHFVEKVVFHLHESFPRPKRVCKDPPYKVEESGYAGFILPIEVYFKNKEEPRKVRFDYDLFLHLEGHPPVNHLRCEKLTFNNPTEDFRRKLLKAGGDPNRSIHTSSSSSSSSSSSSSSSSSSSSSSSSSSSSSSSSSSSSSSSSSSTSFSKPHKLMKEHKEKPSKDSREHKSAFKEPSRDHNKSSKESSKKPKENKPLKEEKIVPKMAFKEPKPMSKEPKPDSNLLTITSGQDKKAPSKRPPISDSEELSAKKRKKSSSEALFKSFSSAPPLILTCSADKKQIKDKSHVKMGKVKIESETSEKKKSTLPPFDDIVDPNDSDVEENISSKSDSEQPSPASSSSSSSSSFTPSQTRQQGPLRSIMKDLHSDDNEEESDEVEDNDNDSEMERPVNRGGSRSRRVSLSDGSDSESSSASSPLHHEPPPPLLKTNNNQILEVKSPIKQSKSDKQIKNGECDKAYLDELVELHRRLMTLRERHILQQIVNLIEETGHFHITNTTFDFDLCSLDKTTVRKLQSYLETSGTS

# | mol | ERAP1 HTS inh | ARNT TACC3 PPI | UUG fidelity | E-sel inducer | S100A4 MyoIIA | MLL AF4-AF9 inh
1 | S=C(NCc1ccccn1)NN=Cc1ccccn1 | 1 | 58* | / | 0 | 2 | 4
2 | Cc1ccc(NC(=S)NCc2ccccn2)cc1 | / | 5 | -34 | / | / | /
3 | COc1ccc(Cl)cc1-c1cc(C(=O)N[C@H](C)c2ccccc2)[nH]n1 | 2 | / | -25 | 0 | 141* | -1
4 | CCOC(=O)C1CCN(C(=S)NC2CC3C=CC2C3)CC1 (stereo not drawn) | -2 | -5 | -27 | -2 | 2 | 32*
5 | COc1ccccc1-c1cnc2c(c1)C(=O)N([C@H](C)CO)C[C@H](C)[C@H](CN(C)CC1CCOCC1)O2 | -2 | 0 | / | 0 | 6 | -2
6 | Cc1cccc(N2CCN(c3nc4ccc(Cl)cc4n4cnnc34)CC2)c1C | -3 | -12 | -20 | 152* | 0 | 2
7 | C[C@H]1CN([C@@H](C)CO)C(=O)c2cc(C#CC3CC3)cnc2O[C@H]1CN(C)C(=O)CC1CC1 | -2 | 26 | 13 | 0 | 0 | -3
8 | COc1ccc(CC2(C)OC(c3ccc([N+](=O)[O-])cc3)=NN2C(C)=O)cc1 (stereo not drawn) | 2 | 25 | / | -3 | -4 | 27*
9 | N#C[C@@H]1[C@H](c2ccc(C3=CCCCC3)cc2)[C@H](CO)N1C(=O)c1cccc(F)c1 | -4 | -11 | / | -1 | -13 | 1
10 | CCC(CC)NCCOC(=O)c1ccc([N+](=O)[O-])cc1 | 0 | / | -19 | / | 1 | 26*
11 | O=C(O)c1cccc(-c2ccc(/C=N/Nc3nn[nH]n3)o2)c1 | 5 | 67* | / | / | 18 | -2
12 | COc1ccccc1CNC(=O)C[C@H]1CC[C@@H]2[C@H](COC[C@@H](O)CN2Cc2cccc(-c3ccncc3)c2)O1 | 1 | 15 | -3 | 0 | 1 | 1
13 | COc1ccccc1CCC(=O)Nc1ccc2c(c1)c(=O)n(C)n2C | 38* | / | 4 | -1 | -5 | 0
14 | COc1ccccc1CCC(=O)Nc1ccc2c(c1)c(=O)n(C)n2Cc1ccc(F)cc1 | 2 | / | -4 | 2 | 0 | -1
15 | COc1cccc(NC(=O)C2C3C=CC4(O3)C2C(=O)N(CCCN2CCCCC2)C4C(=O)NC2CCCCC2)c1 (stereo not drawn) | -3 | / | -2 | 29* | 3 | 4
16 | COc1cccc(NC(=O)C2C3C=CC4(O3)C2C(=O)N(CCCN2CCC(C)CC2)C4C(=O)NC2CCCCC2)c1 (stereo not drawn) | -5 | -2 | -1 | 0 | -16 | -1
17 | O=C(Nc1nc(-c2ccccn2)cs1)c1ccc2c(c1)OCCO2 | 1 | 50* | -8 | 0 | -3 | -1
18 | CC(=O)c1ccc(-c2ccc(C(=O)Nc3nc(-c4ccccn4)cs3)o2)cc1 | -2 | 50* | -20 | 12 | 2 | 0
19 | O=C(Nc1nc(-c2ccccn2)cs1)c1ccc(-c2ccccc2F)o1 | -1 | 44 | -18 | 19 | 6 | -1
20 | C[C@@H]1CN([C@@H](C)CO)C(=O)c2cccc(NC(=O)Nc3ccc(F)cc3)c2O[C@H]1CN(C)Cc1ccccc1 | -2 | -6 | -7 | 0 | 2 | -3
21 | C=C1N(C)c2cc([N+](=O)[O-])c(N)cc2C1(C)C | 3 | 26 | / | / | -7 | 47*
22 | CCN(C(=O)COC(=O)c1cnc(C)cn1)C1CCS(=O)(=O)C1 (stereo not drawn) | 69* | / | -3 | 5 | -3 | 1
23 | CCN(C(=O)COC(=O)c1cccnc1SC)C1CCS(=O)(=O)C1 (stereo not drawn) | 1 | -7 | -6 | / | -2 | /
24 | CC[n+]1c(C)cc(C)n1-c1ccccc1 | 102* | -36 | / | / | -2 | 0
25 | O=C(Nc1nc(NC(=O)c2ccco2)n(-c2ccccc2)n1)c1ccccc1 | / | 56* | -39 | / | / | /
26 | Nc1nc(NC(=O)c2ccccc2)nn1-c1ccccc1 | 6 | 3 | -32 | 0 | -3 | -2
27 | COCC#Cc1cnc2c(c1)C(=O)N([C@H](C)CO)C[C@H](C)[C@@H](CN(C)C(=O)C1CCCCC1)O2 | -2 | -13 | 12 | 0 | -1 | -2
28 | Cn1ccc2c(N3CCCC3)cc3c(c21)C1CCC3C1 (stereo not drawn) | / | / | -15 | 0 | -2 | 30*
29 | Cn1ccc2c(N(Cc3ccccc3)Cc3ccccc3)cc3c(c21)C1CCC3C1 (stereo not drawn) | / | / | -5 | 4 | -7 | 6
30 | CN(c1cc2c(c3c1ccn3C)C1CCC2C1)C1CCCCC1 (stereo not drawn) | 6 | / | -3 | 0 | -4 | 39*
31 | CO[C@H]1CN(C)C(=O)c2ccc(NC(C)=O)cc2OC[C@H](C)NC[C@@H]1C | -1 | 8 | 0 | 0 | 0 | -2
32 | CCC(=O)N1[C@H](CO)[C@H]2c3ccccc3N(C(=O)c3cnccn3)C[C@H]21 | -2 | 0 | -11 | 0 | 2 | -2
33 | O=C(O)c1ccccc1NS(=O)(=O)c1cccc(C(F)(F)F)c1 | / | -74 | 0 | / | / | /
34 | O=C(O)c1ccccc1NS(=O)(=O)c1cccc(-n2sc3ccccc3c2=O)c1 | 99* | -4 | 16 | / | 1 | -6
35 | O=C(COC(=O)c1ccco1)Nc1nnc(-c2ccccc2)o1 | 1 | 60* | / | 0 | -10 | -16
36 | O=C(COc1ccccc1)Nc1nnc(-c2ccco2)o1 | -2 | 74* | -19 | 4 | -2 | 1
37 | COc1cc(OC)c(C(=O)OCC(=O)Nc2nnc(-c3ccccc3)o2)cc1OC | 2 | 85* | 8 | / | 0 | -2
38 | COc1cc(OC)cc(C(=O)OCC(=O)Nc2nnc(-c3ccccc3)o2)c1 | -1 | 5 | -26 | -2 | -2 | -1
39 | O=C(COc1ccccc1)Nc1nnc(-c2ccccc2)o1 | / | 93* | -20 | 0 | 9 | -1
40 | CCC(=O)Nc1nnc(-c2ccccn2)o1 | 0 | 48* | / | 0 | -1 | -3

Record cards (already shown):
`O=C(O)c1ccccc1NS(=O)(=O)c1cccc(-n2sc3ccccc3c2=O)c1` reads ERAP1 HTS inh = 99*; ARNT TACC3 PPI = -4; UUG fidelity = 16; E-sel inducer = /; S100A4 MyoIIA = 1; MLL AF4-AF9 inh = -6
`COc1ccccc1CCC(=O)Nc1ccc2c(c1)c(=O)n(C)n2Cc1ccc(F)cc1` reads ERAP1 HTS inh = 2; ARNT TACC3 PPI = /; UUG fidelity = -4; E-sel inducer = 2; S100A4 MyoIIA = 0; MLL AF4-AF9 inh = -1
`O=C(COC(=O)c1ccco1)Nc1nnc(-c2ccccc2)o1` reads ERAP1 HTS inh = 1; ARNT TACC3 PPI = 60*; UUG fidelity = /; E-sel inducer = 0; S100A4 MyoIIA = -10; MLL AF4-AF9 inh = -16

The list continues.
# | mol | ERAP1 HTS inh | ARNT TACC3 PPI | UUG fidelity | E-sel inducer | S100A4 MyoIIA | MLL AF4-AF9 inh
41 | O=C(CCN1CCCCC1)NCC[C@@H]1CC[C@H](NC(=O)C2CCOCC2)[C@H](CO)O1 | 3 | -2 | -8 | 1 | -5 | -6
42 | CCOC(=O)/C(CCC[N+](C)(CC)CC)=N\O | 111* | -5 | / | 0 | -3 | -2
43 | COc1ccc(N2c3ccccc3CN(Cc3ccccc3)[C@@H](C)[C@H]2Cc2cccnc2)cc1 | -3 | / | 11 | 0 | -1 | 25*
44 | C=CCn1c(Cc2cccc3ccccc23)n[nH]c1=S | / | 10 | -8 | / | / | /
45 | C=CCn1c(Cc2nc3ccccc3[nH]2)n[nH]c1=S | / | 49* | -30 | / | / | /

Screening data from PubChem BioAssay.
